## Measured affinities in a library of Ab-14 heavy chain variants

Binding partner: SARS-CoV-2 spike HR2 peptide, sequence PDVDLGDISGINAS.

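The starting antibody came from a phage panning campaign against this peptide. In library AAYL49, one, two or three CDR residues were substituted; doubles and triples were drawn at random. Affinity was read by AlphaSeq, a pooled yeast mating assay with surface-displayed partners. Mating (16 h, 30 °C) was followed by selection of diploids and sequencing of their barcodes. Each replicate has its own calibration line, from reference interactions of the BCL2 family. There are three technical replicates.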

Each scFv is VH, three GGGGS repeats, VL, as in the parent Ab-14, and differs from it in the CDRs of the heavy chain only.
VH: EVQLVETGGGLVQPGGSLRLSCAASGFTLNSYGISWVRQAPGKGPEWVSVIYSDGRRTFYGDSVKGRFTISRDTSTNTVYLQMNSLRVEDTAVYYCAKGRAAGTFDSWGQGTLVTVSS
VL: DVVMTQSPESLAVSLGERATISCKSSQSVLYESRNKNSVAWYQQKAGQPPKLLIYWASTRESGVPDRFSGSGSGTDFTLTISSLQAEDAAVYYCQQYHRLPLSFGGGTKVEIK

The parent's heavy chain CDRs are GFTLNSYGIS, VIYSDGRRTFYGDSVK, GRAAGTFDS; each variant's own CDRs replace them letter for letter. This list gathers variants with a substitution at D106 (VH, numbered from residue 1). The Kd shown is the geometric mean over detected replicates; a lower Kd is a better binder. An entry "nd" has no value in the source: the pair was not observed among the diploids in any replicate. This suggests poor binding but is not conclusive. Empty control strains, which show no peptide, gave a signal in 15% of pairings with library AAYL49; the median was 11 µM and 95% of these signals were weaker than 680 nM. No background was subtracted. For reference, the parent read 4.4 nM as the reference entry and 13 µM (one replicate of three) as a member of this library.

* GFTLNSYGIS, VIYSDGRRTFYGDYVK, GCAAGTFLS -> 8.2 µM (3 of 3 replicates)
* GFTLNSYGIS, VIYSDWRRTFYGDSVK, GRAANTFYS -> nd (0 of 3 replicates)
* GFTLNSYGIM, VIYSDGRRTFYGDSVK, SRAAGTFAS -> 9.1 µM (1 of 3 replicates)
* GFTLNSYGIS, VIYSDGRRTFYGDSIK, GRAAQTFIS -> nd (0 of 3 replicates)
* GFTLNSYGIN, VIYSDGRRTFYGDPVK, GRAAGTFKS -> nd (0 of 3 replicates)
* GFTLNSYGIS, VIYSSGRRTFYGDSVK, GRPAGTFWS -> 11 µM (2 of 3 replicates)
* GFTLNSYGIS, LIYSDGRRTFYGDSVK, GRAAGTFWS -> 18 µM (1 of 3 replicates)
* GFTLNSYGIS, VIYSDGRRTFYGISVK, GRNAGTFSS -> nd (0 of 3 replicates)
* GFTLNSYGIS, VIYSDGRSTFYGDSVK, GRAAGTFAA -> nd (0 of 3 replicates)
* GFTLNSYIIS, VIYSDGRRTFYGDSVK, GRAAGTFFT -> nd (0 of 3 replicates)
* GFTLNSYGIS, VIYSDGRRTFYGDKVK, GRAAGTYSS -> 800 nM (3 of 3 replicates)
* GFTLNSYGIS, VIDSDGRRTFYGDSVK, GNAAGTFVS -> nd (0 of 3 replicates)
* GFTLNSYGIS, VIYSDGRRTFYGDSVW, GRAAGTFSS -> 70 nM (3 of 3 replicates)
* GFTLNSYGIS, VIYSDGRRTFVGDFVK, GRAAGTFTS -> nd (0 of 3 replicates)
* GFTLNSYGIS, VIYSDGRRTFYGDSHK, SRAAGTFFS -> nd (0 of 3 replicates)
* GFTLNSYGIS, VWYSDGRRTFYGDSVK, GRAAGTFES -> 32 µM (1 of 3 replicates)
* WFTLNSYLIS, VIYSDGRRTFYGDSVK, GRAAGTFRS -> nd (0 of 3 replicates)
* GMTNNSYGIS, VIYSDGRRTFYGDSVK, GRAAGTFFS -> 110 µM (2 of 3 replicates)
* GFTLYNYGIS, VIYSDGRRTFYGDSVK, GRAAGTFVS -> 24 nM (3 of 3 replicates)
* GFTLNSYGIS, VIYADGRRTFYGDSVK, GRAAGTNKS -> 660 pM (3 of 3 replicates)
* GFTLNSYGIS, VKYSDGRRTFYGDSVK, GRAAGTFQS -> nd (0 of 3 replicates)
* GFTLNSYGIS, VIYSDGRRTFYVDSVK, GRAAGSFHS -> 720 nM (1 of 3 replicates)
* GRTLNSYGIS, VRYSDGRRTFYGDSVK, GRAAGTFAS -> 13 µM (3 of 3 replicates)
* GFTLNSYGIS, VIYSDGRRTFYGDSVK, GRARGTCGS -> 10 µM (1 of 3 replicates)
* GFTLNSYGIS, VIYSDGVRTFYGDSVK, GRPAGTFHS -> 2.2 µM (1 of 3 replicates)
* GFTLNSYGIA, VIYSDGRRTFYGDSVK, GRAAGTFKS -> nd (0 of 3 replicates)
* FFTLNSYGIS, VIYSDGRRTFAGDSVK, GRAAGTFYS -> nd (0 of 3 replicates)
* GFTLNSYGIS, VRYSDGRRTFYGDSVK, GRCAGTFFS -> nd (0 of 3 replicates)
* IFTLNSYGIS, VIYSDGRRTFYGDSVK, GRAAGTSYS -> nd (0 of 3 replicates)
* GFTLNSYGIS, QIYSDGRRTFYGDSVK, GRAAGTFFL -> 11 µM (1 of 3 replicates)
* GFTLNSYGIS, VHYSDGRRTFYGDSVS, GRAAGTFRS -> nd (0 of 3 replicates)
* GFTLNSYGIS, VIASDGRRTFYGDCVK, GRAAGTFPS -> nd (0 of 3 replicates)
* GFTLNSYGYS, VIYSDGRRTFYGDSVL, GRAAGTFQS -> nd (0 of 3 replicates)
* GFTLNSYGIS, VIYSSGRRTFYGDSVK, GRDAGTFPS -> 7.5 µM (1 of 3 replicates)
* GFTLNSYGIS, VIYSDGRRTFYGDSVK, GRLAGTFNW -> 580 nM (1 of 3 replicates)
* RFTLNSYGIS, VIYSDGRRTFYGDSVK, GRAAGTFGA -> 65 µM (2 of 3 replicates)
* GFTLNSYGII, VIYSDGRRTFYMDSVK, GRAAGTFQS -> nd (0 of 3 replicates)
* GVTLNSYGIS, VIYSDGRRTFYGDSVK, YRAAGTFPS -> 9.2 µM (1 of 3 replicates)
* GFTLKSYGIS, VIYFDGRRTFYGDSVK, GRAAGTFVS -> nd (0 of 3 replicates)
* GFTLNSYGIS, VIYSDGRRTFYGDSVK, GRAAGTFED -> 6.0 nM (3 of 3 replicates)
* GFTLWSYGIS, VIYSDGRRTFYGDSRK, GRAAGTFCS -> 290 µM (1 of 3 replicates)
* GFTLNSYGIS, VIYSDGRRTFYGDSIK, GRAAGTFSY -> nd (0 of 3 replicates)
* GFTLNSYGIS, VIYSDGRRTFHGHSVK, GRAAGTFTS -> 49 µM (2 of 3 replicates)
* GFTLNSYGIS, VIYSDGARTFMGDSVK, GRAAGTFNS -> 1.8 µM (2 of 3 replicates)
* GFTLNSYGIS, VIYSDGRRTFYGASVK, GRAAVTFTS -> 140 nM (3 of 3 replicates)
* GFTLNSYGIS, VIYSDGRRTYYGDKVK, GRAAGTFHS -> nd (0 of 3 replicates)
* GFTLNSYGIS, VIYSDGRATFYGDSVK, GRFAGTFVS -> 18 µM (2 of 3 replicates)

Picked from the list: the 6 lowest averages where every replicate gave a value.

- GFTLNSYGIS, VIYADGRRTFYGDSVK, GRAAGTNKS = 660 pM (3 of 3 replicates)
- GFTLNSYGIS, VIYSDGRRTFYGDSVK, GRAAGTFED = 6.0 nM (3 of 3 replicates)
- GFTLYNYGIS, VIYSDGRRTFYGDSVK, GRAAGTFVS = 24 nM (3 of 3 replicates)
- GFTLNSYGIS, VIYSDGRRTFYGDSVW, GRAAGTFSS = 70 nM (3 of 3 replicates)
- GFTLNSYGIS, VIYSDGRRTFYGASVK, GRAAVTFTS = 140 nM (3 of 3 replicates)
- GFTLNSYGIS, VIYSDGRRTFYGDKVK, GRAAGTYSS = 800 nM (3 of 3 replicates)

From the AlphaSeq antibody data of Engelhart et al. 2022 (doi:10.1038/s41597-022-01779-4), copy in the FLAb collection.